Laboratory results reported in patent US9789082B2, “Somatostatin receptor subtype 4 (SSTR4) agonists” (Centrexion Therapeutics Corporation, priority 2013, dated 2017).

Sequences of proteins named here, by UniProt entry; tags and fusion partners are left off. A change or cut given only in a name is not applied to a line headed by its entry.
UniProt P31391: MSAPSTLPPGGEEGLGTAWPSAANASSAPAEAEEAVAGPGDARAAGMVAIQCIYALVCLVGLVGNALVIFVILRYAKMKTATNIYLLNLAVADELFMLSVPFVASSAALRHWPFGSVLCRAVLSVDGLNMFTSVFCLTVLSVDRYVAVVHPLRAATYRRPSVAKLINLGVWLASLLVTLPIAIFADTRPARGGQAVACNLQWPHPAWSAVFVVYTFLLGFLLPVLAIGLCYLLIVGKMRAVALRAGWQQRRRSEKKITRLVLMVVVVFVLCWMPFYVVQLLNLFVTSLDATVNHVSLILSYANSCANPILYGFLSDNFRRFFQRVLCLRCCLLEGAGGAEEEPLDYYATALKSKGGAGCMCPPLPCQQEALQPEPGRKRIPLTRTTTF

Molecular target: human SSTR4 (Homo sapiens (Human), UniProt P31391)
Experiment: Radioligand binding assay, CHO cell membranes expressing recombinant human SSTR4
From the text: Radioligand Binding Assays
Method Description for Binding Assays with Human Somatostatin Receptors by Use of CHO Cell Membranes Expressing Recombinant Human SSTR1 or Human SSTR2 or Human SSTR3 or Human SSTR4 or Human SSTR5
Receptor binding assays refer to a technique in which labeled receptor ligands are used to detect binding to a receptor. In competition experiments test compounds, which are not labeled, compete with the binding side of a labeled ligand. The displacement of the labeled ligand by the test compound leads to a decreased signal.
For the binding experiments 200 μL of membrane homogenate from one of the following protein amounts is used: hSSTR1 (40 μg/well); hSSTR2 (25 μg/well); hSSTR3 (1.5 μg/well); hSSTR4 (0.5 μg/well); hSSTR5 (25 μg/well). […] The incubation is terminated by filtration with ice cold NaCl 0.9% through polyethyleneimine treated (0.3%) GF/B glass fiber filters using a cell harvester. The protein-bound radioactivity is measured in a suitable reader. The non-specific binding is defined as radioactivity bound in the presence of 1 μM Somatostatin-14 during the incubation period.
The analysis of the concentration-binding curves is performed by computer-assisted nonlinear least square curve fitting method using the model of one receptor binding site.
Selectivity data was obtained with the aid of the above described radioligand binding assays.

## Cc1cccc2c(C(C)(C)NC(=O)[C@H]3[C@@H]4CNC[C@@H]43)nn(C)c12 [Example 107]
  Ki: 3.4 nM
